## scFv variants of Ab-95 (light chain) against a SARS-CoV-2 spike peptide

Data: MIT Lincoln Laboratory AlphaSeq set, Engelhart et al. 2022, doi:10.1038/s41597-022-01779-4, as distributed in FLAb.

All variants were tested on one target, the spike HR2 peptide PDVDLGDISGINAS (SARS-CoV-2).

Parent scFv Ab-95: VH joined to VL by the linker GGGGSGGGGSGGGGS. Changes lie in the light chain CDRs alone.
VH: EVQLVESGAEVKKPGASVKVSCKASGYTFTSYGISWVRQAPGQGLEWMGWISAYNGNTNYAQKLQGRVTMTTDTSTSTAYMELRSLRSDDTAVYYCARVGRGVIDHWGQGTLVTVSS
VL: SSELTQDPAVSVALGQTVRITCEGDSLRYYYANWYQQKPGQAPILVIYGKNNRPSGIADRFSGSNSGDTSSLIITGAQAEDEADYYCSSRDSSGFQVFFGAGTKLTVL

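Phage display of a naive human antibody library on the peptide gave the parent. Variants in AAYL52 differ from the parent at up to three CDR positions; double and triple changes were sampled at random. In AlphaSeq, yeast of one mating type display the scFv and yeast of the other type display the target. Binding brings cells together so that they mate, and sequencing counts the barcode pairs among the diploids. Read counts were normalised to the haploid input and turned into Kd by a linear fit to BCL2-family pairs of known affinity, for each replicate. There are three technical replicates.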

Substitutions are numbered in sequence along the VL above, starting at 1 (not Kabat). Every variant below is changed at Y30 of the VL (sequential numbering). Kd is apparent (estimated from mating counts) and averaged on the log scale over replicates with a signal. Smaller is tighter. "nd" marks a missing value. The strain was present, yet no cells mated with the target were sequenced in any replicate, which points to weak or no binding. Background: pairings of library AAYL52 with three empty control strains gave a value in 28% of cases (median 8.2 µM, 5th percentile 800 nM). Values in that range, when seen in few replicates, are hard to tell from nonspecific mating. For reference, the parent read 200 nM as the reference entry and 180 nM as a member of this library.

changes,Kd,detected
R28W+Y30H+R90K,48 nM,3 of 3
R28M+Y30K+G49Q,260 nM,3 of 3
Y30C+G49N+S92I,3.1 µM,2 of 3
Y30I+N52K+R90D,7.2 µM,3 of 3
Y30I+D91G+V97E,nd,0 of 3
E23G+Y30F+F98V,8.8 µM,2 of 3
Y30N+N52C+S93T,4.9 nM,3 of 3
Y30T+R90H+V97H,2.2 µM,1 of 3
E23C+Y30W+N51Q,1.4 µM,3 of 3
Y30E+K50C+N52L,6.4 µM,3 of 3
R28M+Y30M+N52L,51 nM,3 of 3
D25N+Y30R+N52T,25 nM,3 of 3
D25E+Y30A+S89C,3.0 nM,3 of 3
Y30I+G49A+G94R,8.4 µM,2 of 3
D25N+Y30N+G94E,1.6 µM,1 of 3
Y30V+P54N,75 nM,3 of 3
S26R+Y30D+G94I,1.2 µM,2 of 3
R28I+Y30R+R53D,8.2 µM,1 of 3
Y30N+K50A+S55I,5.1 nM,3 of 3
Y30D+G49F+R53D,19 µM,1 of 3
Y30C+N51E+N52W,2.5 µM,1 of 3
Y30S+N33C,660 nM,3 of 3
Y30G+N51Q+S92I,4.5 nM,3 of 3
E23N+Y30W+S88W,3.7 µM,3 of 3
Y30D+S88I+S92K,1.7 µM,2 of 3
E23C+Y30W+Y31L,4.8 µM,3 of 3
D25V+Y30S+R90G,25 nM,3 of 3
Y29Q+Y30N+K50S,2.9 nM,3 of 3
Y30R+S88N+S92E,11 nM,3 of 3
R28P+Y30D+N51M,1.2 µM,3 of 3
R28N+Y30D+N33F,97 µM,3 of 3
Y30A+P54S+S89K,330 nM,3 of 3
Y30G+K50A+S55N,23 nM,3 of 3
Y30F+S93C,240 µM,1 of 3
R28G+Y30W,190 nM,3 of 3
Y30G+Y31W+K50L,24 nM,3 of 3
Y30H+K50F+S92A,19 nM,3 of 3
Y30C+D91C+S93A,10 µM,3 of 3
Y30V,38 nM,3 of 3
Y30N+P54W+D91V,440 nM,3 of 3
Y30P+G94T+F95N,890 nM,2 of 3
Y29W+Y30F+F98W,460 µM,1 of 3
E23Q+Y30V+N52Q,43 nM,3 of 3
Y30N+N51L+G94Q,1.7 µM,2 of 3
Y30F+D91F+S92C,49 µM,3 of 3
Y30D+S55I+S88A,41 nM,3 of 3
Y30P,110 nM,3 of 3
E23P+Y30P+S92P,7.5 µM,2 of 3
S26W+Y30Q+S92Q,9.8 nM,3 of 3
Y30M+S89F+S93C,29 nM,3 of 3
Y30V+R53P+S88T,15 µM,1 of 3
Y30Q+K50Q+S93R,11 nM,3 of 3
D25Y+Y30D+S55M,94 nM,3 of 3
Y30L+R53D+S89N,3.2 µM,1 of 3
G24N+Y29C+Y30R,1.5 µM,3 of 3

Excerpt, the final 6 entries:

{"changes": "Y30M+S89F+S93C", "Kd": "29 nM", "detected": "3 of 3"}
{"changes": "Y30V+R53P+S88T", "Kd": "15 µM", "detected": "1 of 3"}
{"changes": "Y30Q+K50Q+S93R", "Kd": "11 nM", "detected": "3 of 3"}
{"changes": "D25Y+Y30D+S55M", "Kd": "94 nM", "detected": "3 of 3"}
{"changes": "Y30L+R53D+S89N", "Kd": "3.2 µM", "detected": "1 of 3"}
{"changes": "G24N+Y29C+Y30R", "Kd": "1.5 µM", "detected": "3 of 3"}